Target: Nitric oxide synthase, brain (Homo sapiens, UniProt P29475)
Experiment: Inhibition of recombinant NOS1 assessed as citrulline formation

Protein sequences, listed by entry. Tags and fused reporters are not part of them.
UniProt P29475, whole entry, looked up: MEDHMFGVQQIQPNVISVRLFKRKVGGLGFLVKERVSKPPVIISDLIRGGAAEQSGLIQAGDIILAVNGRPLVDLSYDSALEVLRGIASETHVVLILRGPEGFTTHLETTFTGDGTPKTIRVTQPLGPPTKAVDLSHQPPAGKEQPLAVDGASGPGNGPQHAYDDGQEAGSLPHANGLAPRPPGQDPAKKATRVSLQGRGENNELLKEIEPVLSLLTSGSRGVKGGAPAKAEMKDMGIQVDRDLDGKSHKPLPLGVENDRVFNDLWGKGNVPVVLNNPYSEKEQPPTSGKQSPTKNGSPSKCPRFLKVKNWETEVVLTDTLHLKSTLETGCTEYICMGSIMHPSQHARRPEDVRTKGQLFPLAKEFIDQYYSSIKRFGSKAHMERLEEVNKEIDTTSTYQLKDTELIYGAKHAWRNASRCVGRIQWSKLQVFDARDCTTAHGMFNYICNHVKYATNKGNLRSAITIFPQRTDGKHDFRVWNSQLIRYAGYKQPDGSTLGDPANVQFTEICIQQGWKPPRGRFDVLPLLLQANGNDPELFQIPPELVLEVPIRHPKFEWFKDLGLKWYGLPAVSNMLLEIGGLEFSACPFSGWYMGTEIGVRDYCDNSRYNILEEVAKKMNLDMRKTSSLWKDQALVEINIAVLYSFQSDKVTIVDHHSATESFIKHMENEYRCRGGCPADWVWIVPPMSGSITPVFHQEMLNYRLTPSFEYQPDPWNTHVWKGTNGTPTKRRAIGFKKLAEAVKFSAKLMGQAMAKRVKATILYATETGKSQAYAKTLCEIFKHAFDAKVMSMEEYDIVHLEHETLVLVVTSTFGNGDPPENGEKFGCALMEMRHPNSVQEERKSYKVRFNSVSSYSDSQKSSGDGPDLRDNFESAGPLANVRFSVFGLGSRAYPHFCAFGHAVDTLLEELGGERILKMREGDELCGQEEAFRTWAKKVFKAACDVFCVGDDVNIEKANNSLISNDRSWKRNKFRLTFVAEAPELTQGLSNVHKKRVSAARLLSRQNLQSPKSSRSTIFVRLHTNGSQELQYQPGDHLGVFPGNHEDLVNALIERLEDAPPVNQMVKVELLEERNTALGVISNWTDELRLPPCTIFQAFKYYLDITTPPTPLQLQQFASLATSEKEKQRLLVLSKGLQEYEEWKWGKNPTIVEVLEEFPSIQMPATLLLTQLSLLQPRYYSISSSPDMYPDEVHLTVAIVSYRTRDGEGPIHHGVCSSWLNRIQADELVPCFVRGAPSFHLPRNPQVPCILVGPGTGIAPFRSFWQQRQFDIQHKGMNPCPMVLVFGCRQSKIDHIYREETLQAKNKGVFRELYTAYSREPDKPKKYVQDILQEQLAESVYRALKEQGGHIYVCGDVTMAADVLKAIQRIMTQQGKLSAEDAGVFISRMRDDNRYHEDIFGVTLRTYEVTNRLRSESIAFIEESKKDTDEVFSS

O=[N+]([O-])c1ccc2c(c1)c(Br)nn2[N+](=O)[O-]
IC50: 275 µM
